Values quoted from earlier work in PMC4613811 (Lung cancer (Amsterdam, Netherlands), 2015).

Tested on: NSCLC with EGFR activating mutations
Conditions: cited from earlier work

In the case of COc1cc2ncnc(Nc3ccc(F)c(Cl)c3)c2cc1OCCCN1CCOCC1 [gefitinib], the “time to development of resistance in the majority of patients” value (NSCLC patients with EGFR activating mutations) is listed as “less than 1 year” and the “response rates (RRs)” value (NSCLC patients with known EGFR activating mutations) is listed as 60–70%.
